# Compounds with a hit are over-represented: about 1.8% of the library has one in this group of screens.
# Cneo AK release: causes C. neoformans cell lysis; adenylate kinase release luminescence, 4 h; normalised: neutral wells 0, clomiphene wells 100; lysis activity, % at 15 µM; 0.2% of 360,000 active; AID 651654;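 active = mean lysis activity across replicates of at least 80%, whatever share of replicates individually reach that level; inactive = mean lysis activity below 80%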
#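 Assay system: C. neoformans cells. Amount: yeast cell density of 5 × 10^6 cells/mL. Technique: AK luminescence. Buffer or medium: YPD. Times: static 4 h at 37 °C with compound, 1 h detection. Dosing: single-point compound dose. Read-out: lysis from increased AK signal.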
# E-sel inducer: E-selectin induction on HUVECs | activation, % at 7.58 µM | AID 686992 | P16581 | HUVEC E-selectin immunofluorescence imaging; normalized: neutral wells 0, TNF-alpha wells 100 | 0.37% of 260,000 active;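 active = mean E-selectin-positive cell signal at least 10% of the positive control, reached in at least 60% of replicates, without over 20% cell loss; inconclusive = no rule given, readout overlaps actives, possibly toxicity-flagged; inactive = the rest, including those meeting only one limit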
#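 Assay system: HUVEC primary endothelial cells. Input: 3,000 HUVEC seeded per well. Doses: one compound dose added by pin transfer. Read-out basis: % PE-positive cells. Benchmarks: TNF-alpha high, DMSO low. Detection: immunofluorescence imaging. Buffer or medium: EGM-2, gelatin.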
# DENV2 CPE: protects cells from dengue virus 2 cytopathic effect. DENV2-infected cells, cytopathic effect rescue, plate reader. CPE inhibition, % at 9.99 µM. 1.7% of 350,000 active; in the data active = CPE inhibition above about 20%, passing the limit was not always enough; inconclusive = no clear call, values can overlap the other calls; tested in BHK-21 cells;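 note: 0% = median of neutral control wells and 100% = median of positive control wells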
# UUG fidelity: alters start codon recognition fidelity in yeast; AID 602363; activity score, % at 18.7 µM; 350,000 tested, 0.13% active; S. cerevisiae UUG-firefly luciferase reporter, luminescence/redox ratio;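 active means replicate mean at a twofold rise or more, about +100% in these data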;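 further: firefly luciferase made from a UUG start codon reports start codon fidelity; reporter light over untreated wells divided by growth signal over untreated wells; some hits fall short of that in this replicate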
# An asterisk follows results filed as active; ? = inconclusive; . = no result; ! = repeats disagree.
SMILES,Cneo AK release,E-sel inducer,DENV2 CPE,UUG fidelity
NC(=S)N=Nc1c(O)n(Cc2ccccc2)c2ccccc12,0,.,63*,-17
C/C(Cl)=C\Cn1c(O)c(N=NC(N)=S)c2ccccc21,.,1,-2,.
CCn1c(SCc2cccc(F)c2)nnc1-c1ccncc1,1,0,47*,-17
CCn1c(SCc2cccc(F)c2)nnc1-c1cccnc1,.,.,-1,.
C[C@@H]1CN([C@H](C)CO)C(=O)c2cccc(NC(=O)Nc3ccc4c(c3)OCO4)c2O[C@@H]1CN(C)C(=O)Nc1ccc(F)cc1,4,-1,?,-11
O=C(Nc1cccc([N+](=O)[O-])c1)N1CCCc2ccccc21,-1,0,-11,-15
O=[N+]([O-])c1cccc(NC(=S)N2CCc3ccccc32)c1,-1,.,70*,-22
O=C(O)Cn1cc(C(=O)C(F)(F)F)c2ccccc21,8,49*,-6,-3
C[C@H]1CCCCO[C@H](CN(C)S(=O)(=O)c2ccccc2)[C@@H](C)CN([C@@H](C)CO)C(=O)c2cc(NC(=O)Nc3ccc(C(F)(F)F)cc3)ccc2O1,1,0,-3,-6
C[C@@H](C(=O)NC1CCN(Cc2ccccc2)CC1)N1C(=O)N2CCc3c([nH]c4ccccc34)[C@@]2(C)C1=O,-1,.,?,-7
C[C@@H](C(=O)NCCc1ccccc1)N1C(=O)N2CCc3c([nH]c4ccccc34)[C@@]2(C)C1=O,-2,.,37*,3
C[C@@H](C(=O)NCCc1ccccc1F)N1C(=O)N2CCc3c([nH]c4ccccc34)[C@@]2(C)C1=O,0,.,-2,-9
CC(C)[C@@H](C(=O)NC1CCN(Cc2ccccc2)CC1)N1C(=O)N2CCc3c([nH]c4ccccc34)[C@@]2(C)C1=O,-1,.,39*,-10
CC(C)NC(=O)N(C)C[C@H]1OCCCC[C@H](C)Oc2ccc(NS(=O)(=O)c3cccs3)cc2C(=O)N([C@@H](C)CO)C[C@@H]1C,-4,.,-8,-11
NC(=O)C(CCC(=O)c1ccc(Br)cc1)S(=O)(=O)c1ccccc1 (stereo not given),.,-2,31*,.

# Single records, from the list above. Order of screens: Cneo AK release, E-sel inducer, DENV2 CPE, UUG fidelity
# `C[C@@H](C(=O)NCCc1ccccc1)N1C(=O)N2CCc3c([nH]c4ccccc34)[C@@]2(C)C1=O` as listed: -2, ., 37*, 3
# `CC(C)NC(=O)N(C)C[C@H]1OCCCC[C@H](C)Oc2ccc(NS(=O)(=O)c3cccs3)cc2C(=O)N([C@@H](C)CO)C[C@@H]1C` as listed: -4, ., -8, -11

# Following part.
SMILES,Cneo AK release,E-sel inducer,DENV2 CPE,UUG fidelity
Cc1cc2nc(-c3cccc(Cl)c3)c(CC3CCCCC3)n2c(C)c1Br,.,0,98*,.
Cc1ccc(-c2ccc3c(c2)O[C@H](CN(C)S(C)(=O)=O)[C@@H](C)CN([C@H](C)CO)S3(=O)=O)cc1,-6,-1,-6,5
CC(C)(C)[C@H]1C=C(C(=O)N2CCN(Cc3ccc4c(c3)OCO4)CC2)O[C@@H](OCCCCO)C1,1,0,-7,-3
CC(C)(C)[C@@H]1C=C(C(=O)N2CCN(Cc3ccc4c(c3)OCO4)CC2)O[C@H](OCc2ccc(CO)cc2)C1,36,0,34*!,1
C[C@H](CO)N1C[C@H](C)[C@H](CN(C)C)Oc2cc(C#CC3CCCC3)ccc2S1(=O)=O,-1,0,59*,6
C[C@@H]1CN([C@@H](C)CO)S(=O)(=O)c2ccc(C#CC3CCCC3)cc2O[C@H]1CN(C)C,2,0,22*,55
C[C@@H]1CN([C@H](C)CO)S(=O)(=O)c2ccc(C#CC3CC3)cc2O[C@H]1CN(C)CC1CCOCC1,85*,0,-2,19
C[C@H](CO)N1C[C@H](C)[C@H](CN(C)C)Oc2cc(C#CC3(O)CCCC3)ccc2S1(=O)=O,5,0,26*,20
C[C@@H]1CN([C@H](C)CO)S(=O)(=O)c2ccc(C#CC3CC3)cc2O[C@@H]1CN(C)CC1CCOCC1,-2,0,-1,1
C[C@@H]1CN([C@@H](C)CO)S(=O)(=O)c2ccc(C#CC3(O)CCCC3)cc2O[C@@H]1CN(C)C,8,0,-6,3
Cc1ccccc1-c1ccc([C@H]2[C@H](CO)N3C(=O)CN(C(=O)Cc4ccccn4)C[C@@H]23)cc1,.,0,12,.
O=C(C1CCCC1)N1CCCCN2[C@H](CO)[C@H](c3ccc(-c4cccc(F)c4)cc3)[C@@H]2C1,-1,.,-4,4
CC(C)CC#Cc1cnc2c(c1)C(=O)N([C@@H](C)CO)C[C@H](C)[C@@H](CN(C)C(=O)Nc1ccccc1F)O2,-4,1,0,6
COc1ccc(S(=O)(=O)Nc2ccc3c(c2)C(=O)N([C@@H](C)CO)C[C@H](C)[C@H](CN(C)C)O3)cc1,-3,-1,-5,18
O=C(c1cnccn1)N1CC[C@H]2[C@H](CO)Nc3ccc(C#Cc4cccnc4)cc3[C@H]21,57,0,-4,-1

# Ordered by number of heavy atoms (high to low): part of the list above
SMILES,Cneo AK release,E-sel inducer,DENV2 CPE,UUG fidelity
O=C(C1CCCC1)N1CCCCN2[C@H](CO)[C@H](c3ccc(-c4cccc(F)c4)cc3)[C@@H]2C1,-1,.,-4,4
C[C@@H]1CN([C@@H](C)CO)S(=O)(=O)c2ccc(C#CC3CCCC3)cc2O[C@H]1CN(C)C,2,0,22*,55
Cc1cc2nc(-c3cccc(Cl)c3)c(CC3CCCCC3)n2c(C)c1Br,.,0,98*,.

# (more compounds)
SMILES,Cneo AK release,E-sel inducer,DENV2 CPE,UUG fidelity
CN(C)CCCn1c(=O)n(C2CCCCC2)c(=O)c2c3c(sc21)CCCCC3,88*,.,10,-14
CC(C)CC#Cc1ccc2c(c1)O[C@@H](CN(C)S(=O)(=O)c1cccc(F)c1)[C@H](C)CN([C@H](C)CO)S2(=O)=O,0,0,-1,-1
C[C@@H]1CN([C@@H](C)CO)C(=O)c2cccc(NS(=O)(=O)c3ccccc3)c2O[C@@H]1CN(C)CC1CCCCC1,-1,0,24*,8
C[C@H](CO)N1C[C@H](C)[C@H](CN(C)CC2CCCCC2)Oc2c(NS(C)(=O)=O)cccc2C1=O,91*,1,11,13
COc1ccc(S(=O)(=O)N(C)C[C@@H]2Oc3ccc(NC(=O)Nc4ccc(F)cc4)cc3CC(=O)N([C@@H](C)CO)C[C@H]2C)cc1,2,0,?,13
COc1ccc2c3c(n(C)c2c1)[C@@H](CO)N(C(=O)c1ccccc1)CC31CN(C(=O)c2ccccc2)C1,.,0,-3,.
CC1CCN(c2nc3c(=O)[nH]c(N)nc3n2[C@@H]2O[C@H](CO)[C@@H](O)[C@H]2O)CC1,5,69*,3,-13
COc1ccccc1-c1cnc2c(c1)C(=O)N([C@@H](C)CO)C[C@@H](C)[C@H](CN(C)Cc1ccncc1)O2,1,0,-7,-7
O=C(C[C@H]1CC[C@@H](NC(=O)Nc2ccc3c(c2)OCO3)[C@@H](CO)O1)NCCCN1CCOCC1,.,1,.,.
C[C@H]1CN([C@@H](C)CO)C(=O)Cc2cc(NC(=O)C3CCCCC3)ccc2O[C@H]1CN(C)Cc1ccc2c(c1)OCO2,3,-1,1,6
Cc1[nH]c(C)c(S(=O)(=O)N2CCCCC2)c1C(=O)N1CCCC1,8,85*,5,-19
CCCN1C[C@H](C)[C@@H](OC)CN(C)C(=O)c2cc(NC(=O)c3ccc(F)cc3)ccc2OC[C@@H]1C,1,0,-8,9
CCCN1C[C@H](C)[C@@H](OC)CN(C)C(=O)c2cc(NC(=O)c3ccc(F)cc3)ccc2OC[C@H]1C,0,1,47*,2
CCCN1C[C@H](C)[C@@H](OC)CN(C)C(=O)c2ccc(NC(=O)c3cccc(F)c3)cc2OC[C@@H]1C,-1,0,29*,5
CCCN1C[C@H](C)[C@@H](OC)CN(C)C(=O)c2cc(NC(=O)c3cccc(F)c3)ccc2OC[C@H]1C,117*,1,-10,11
CCN1C[C@@H](C)[C@H](OC)CN(C)C(=O)c2cc(NC(=O)c3ccno3)ccc2OC[C@H]1C,0,0,20*,5
